Data published in ChEMBL document CHEMBL6087444, “Synthesis and Evaluation of Halogenated Pralidoximes in Reactivation of Organophosphate-Inhibited Cholinesterases” (2024).
Activity calls are given as the source filed them. The rule behind the calls is not given here.

Sequences of proteins named here, by UniProt entry; tags and fusion partners are left off. A change or cut given only in a name is not applied to a line headed by its entry.
UniProt P22303: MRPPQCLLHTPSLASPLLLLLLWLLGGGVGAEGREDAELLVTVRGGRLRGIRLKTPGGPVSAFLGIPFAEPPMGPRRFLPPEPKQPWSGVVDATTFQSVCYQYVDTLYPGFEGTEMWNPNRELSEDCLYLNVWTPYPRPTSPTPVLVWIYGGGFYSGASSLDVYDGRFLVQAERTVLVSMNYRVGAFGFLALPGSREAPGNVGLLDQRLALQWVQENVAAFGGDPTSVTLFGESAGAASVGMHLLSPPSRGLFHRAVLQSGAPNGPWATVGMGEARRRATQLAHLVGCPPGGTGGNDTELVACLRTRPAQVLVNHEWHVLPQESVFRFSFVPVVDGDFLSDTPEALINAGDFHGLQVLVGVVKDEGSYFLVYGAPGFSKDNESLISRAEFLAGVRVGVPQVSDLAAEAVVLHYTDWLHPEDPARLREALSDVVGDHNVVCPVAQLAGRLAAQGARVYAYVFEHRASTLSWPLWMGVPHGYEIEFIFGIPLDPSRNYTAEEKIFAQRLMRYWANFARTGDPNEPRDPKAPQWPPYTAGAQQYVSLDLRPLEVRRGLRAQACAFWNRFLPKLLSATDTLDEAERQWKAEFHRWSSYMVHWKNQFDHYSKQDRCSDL
UniProt P06276, whole entry, looked up: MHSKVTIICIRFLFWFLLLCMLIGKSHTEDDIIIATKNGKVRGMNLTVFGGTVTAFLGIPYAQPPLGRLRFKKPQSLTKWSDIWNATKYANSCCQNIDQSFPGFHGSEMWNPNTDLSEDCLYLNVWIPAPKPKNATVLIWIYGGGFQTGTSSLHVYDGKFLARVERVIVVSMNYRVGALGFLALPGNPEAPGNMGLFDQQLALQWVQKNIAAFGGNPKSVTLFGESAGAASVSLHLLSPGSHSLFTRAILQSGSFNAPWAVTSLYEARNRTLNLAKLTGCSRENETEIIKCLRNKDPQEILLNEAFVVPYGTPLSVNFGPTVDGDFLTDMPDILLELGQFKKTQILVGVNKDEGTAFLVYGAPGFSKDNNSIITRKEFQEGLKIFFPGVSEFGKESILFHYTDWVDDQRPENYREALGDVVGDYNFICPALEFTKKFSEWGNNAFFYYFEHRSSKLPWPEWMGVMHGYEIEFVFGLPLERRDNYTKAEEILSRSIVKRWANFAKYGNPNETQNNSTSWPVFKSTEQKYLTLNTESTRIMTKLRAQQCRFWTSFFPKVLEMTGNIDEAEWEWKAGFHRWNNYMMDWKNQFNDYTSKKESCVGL

Key:
[1] = biological target: Acetylcholinesterase (Homo sapiens) (UniProt P22303); experiment: Reactivation of POX-inhibited human recombinant AChE activity using ATCI as substrate at 1 to 1200 uM incubated for 0.5 to 15 mins; details: filed as activator, dose 1-1200 µM, time 0.5-15 min
[2] = biological target: Cholinesterase (Homo sapiens) (UniProt P06276); experiment: Reactivation of POX-inhibited human recombinant BChE activity using BTCI as substrate at 1 to 1200 uM incubated for 0.5 to 15 mins; details: dose 1-1200 µM, time 0.5-15 min
[3] = biological target: Acetylcholinesterase (Homo sapiens) (UniProt P22303); experiment: Reactivation of NEMP-inhibited human recombinant AChE activity using ATCI as substrate at 1 to 1200 uM incubated for 0.5 to 15 mins; details: filed as activator, dose 1-1200 µM, time 0.5-15 min
[4] = biological target: Acetylcholinesterase (Homo sapiens) (UniProt P22303); experiment: Reactivation of NIMP-inhibited human recombinant AChE activity using ATCI as substrate at 1 to 1200 uM incubated for 0.5 to 15 mins; details: filed as activator, dose 1-1200 µM, time 0.5-15 min
[5] = biological target: Cholinesterase (Homo sapiens) (UniProt P06276); experiment: Reactivation of NEMP-inhibited human recombinant BChE activity using BTCI as substrate at 1 to 1200 uM incubated for 0.5 to 15 mins; details: filed as activator, dose 1-1200 µM, time 0.5-15 min
[6] = biological target: Acetylcholinesterase (Homo sapiens) (UniProt P22303); experiment: Reactivation of NEDPA-inhibited human recombinant AChE activity using ATCI as substrate at 1 to 1200 uM incubated for 0.5 to 15 mins; details: filed as activator, dose 1-1200 µM, time 0.5-15 min
[7] = biological target: Acetylcholinesterase (Homo sapiens) (UniProt P22303); experiment: Reactivation of POX-inhibited human recombinant AChE activity using ATCI as substrate at 10 uM preincubated for 15 mins followed by substrate addition by absorbance based analysis; details: filed as activator
[8] = biological target: Acetylcholinesterase (Homo sapiens) (UniProt P22303); experiment: Reactivation of NEMP-inhibited human recombinant AChE activity using ATCI as substrate at 10 uM preincubated for 15 mins followed by substrate addition by absorbance based analysis; details: filed as activator
[9] = biological target: Acetylcholinesterase (Homo sapiens) (UniProt P22303); experiment: Reactivation of NIMP-inhibited human recombinant AChE activity using ATCI as substrate at 10 uM preincubated for 15 mins followed by substrate addition by absorbance based analysis; details: filed as activator
[10] = biological target: Cholinesterase (Homo sapiens) (UniProt P06276); experiment: Reactivation of POX-inhibited human recombinant BChE activity using BTCI as substrate at 100 uM preincubated for 15 mins followed by substrate addition by absorbance based analysis; details: filed as activator
[11] = biological target: Acetylcholinesterase (Homo sapiens) (UniProt P22303); experiment: Reactivation of NEDPA-inhibited human recombinant AChE activity using ATCI as substrate at 10 uM preincubated for 15 mins followed by substrate addition by absorbance based analysis; details: filed as activator
[12] = biological target: Cholinesterase (Homo sapiens) (UniProt P06276); experiment: Reactivation of NIMP-inhibited human recombinant BChE activity using BTCI as substrate at 100 uM preincubated for 15 mins followed by substrate addition by absorbance based analysis
[13] = biological target: Cholinesterase (Homo sapiens) (UniProt P06276); experiment: Reactivation of NEMP-inhibited human recombinant BChE activity using BTCI as substrate assessed as fold change at 100 uM preincubated for 15 mins followed by substrate addition by absorbance based analysis relative to 2-PAM; details: filed as activator
[14] = biological target: Acetylcholinesterase (Homo sapiens) (UniProt P22303); experiment: Reactivation of NIMP-inhibited human recombinant AChE activity using ATCI as substrate at low concentration preincubated for 15 mins followed by substrate addition by absorbance based analysis relative to control; set-up: scale not given: the % may be the effect or the level left; details: filed as activator
[15] = biological target: Cholinesterase (Homo sapiens) (UniProt P06276); experiment: Reactivation of NEMP-inhibited human recombinant BChE activity using BTCI as substrate at 100 uM preincubated for 15 mins followed by substrate addition by absorbance based analysis; details: filed as activator
[16] = biological target: Cholinesterase (Homo sapiens) (UniProt P06276); experiment: Reactivation of NEDPA-inhibited human recombinant BChE activity using BTCI as substrate at 100 uM preincubated for 15 mins followed by substrate addition by absorbance based analysis; details: filed as activator

Row | Compound | Activity [1] | Activity [2] | Activity [3] | Activity [4] | Activity [5] | Activity [6] | Activity [7] | Activity [8] | Activity [9] | Activity [10] | Activity [11] | Activity [12] | fold change (FC) [13] | Activity [14] [%] | Activity [15] | Activity [16]
1 | C[n+]1cccc(F)c1/C=N/O | Active | inactive | Active | Active; Better Ability Than 2-Pam | Active | Active; Faster Reactivation Observed | Active; Compound Showed Highest Activity | Active; Compound Showed Highest Activity | Active; Compound Showed Highest Activity | Active | Active; Compound Showed Highest Activity | Not active; Comparable To 2-Pam | 2 | – | – | –
2 | Nc1ccc2cc[n+](CCCCCc3ccc(O)c(/C=N/O)n3)c(-c3ccccc3)c2c1 | – | – | – | – | – | – | – | – | – | – | – | – | – | > 60 | – | –
3 | C[n+]1cc(Cl)ccc1/C=N/O | – | – | – | – | – | – | Active | Active | Active | Active | Active | Not active; Comparable To 2-Pam | – | – | Active; Slightly Comparable Ability To 2-Pam | Active
4 | C[n+]1cc(Br)ccc1/C=N/O | – | – | – | – | – | – | Active | Active | Active | Active | Active | Not active; Comparable To 2-Pam | – | – | Active; Slightly Comparable Ability To 2-Pam | Active
5 | C[n+]1cccc(Cl)c1/C=N/O | – | inactive | Active | – | – | Active; Faster Reactivation Observed | Active | Active | Active | Active | Active | Not active; Comparable To 2-Pam | 2 | – | – | –
6 | C[n+]1cc(F)ccc1/C=N/O | – | – | Active | – | – | Active; Faster Reactivation Observed | Active | Active | Active | Active | Active | Not active; Comparable To 2-Pam | – | – | Active; Slightly Comparable Ability To 2-Pam | Active
7 | C[n+]1cccc(Br)c1/C=N/O | – | inactive | – | – | Active | Active; Faster Reactivation Observed | Active | Active | Active | Active | Active | Not active; Comparable To 2-Pam | 2 | – | Active; Compound Showed Highest Activity | Active; Compound Showed Highest Activity
8 | O/N=C/c1nc(CCCCC[n+]2ccc3ccccc3c2-c2ccccc2)ccc1O | – | – | – | – | – | – | – | – | – | – | – | – | – | > 60 | – | –
